{"source": "paper PMC3665789", "about": "(PLoS ONE, 2013)", "key": {"neuropathic pain": {"test_system": "neuropathic pain", "set-up": "method as in PMID 20082397", "conditions": "cited from earlier work"}, "HSV": {"test_system": "HSV", "conditions": "Tables 3 and 4"}, "[1]": {"test_system": "herpes simplex virus (HSV)", "set-up": "method as in PMID 20082397", "conditions": "cited from earlier work"}}}
{"smiles": "CC(C)C[C@@H]1NC(=O)[C@]23CSC[C@H](NC(=O)[C@H](C)NC(=O)[C@H](Cc4ccccc4)NC1=O)C(=O)N[C@H](C(=O)O)CSSC[C@H](NC(=O)[C@@H]1CSC[C@]4(C[C@H](N)C(=O)N[C@@H](CC(=O)O)C(=O)N[C@@H](Cc5c[nH]c6ccccc56)C(=O)N4)C(=O)N[C@@H](CC(C)C)C(=O)N[C@@H](Cc4c[nH]c5ccccc45)C(=O)N[C@@H](CCC(=O)O)C(=O)N1)C(=O)N[C@@H](C2)C(=O)N[C@@H]([C@@H](C)O)C(=O)NCC(=O)N3", "note": "[LabyA2, labyrinthopeptin A2]", "values": [{"measurement": "activity in a neuropathic pain mouse model", "setting": "neuropathic pain", "result": "pronounced activity"}, {"measurement": "fold less potent than LabyA1 against HSV (on average)", "setting": "HSV", "result": "at least 10 fold"}, {"measurement": "anti-herpetic activity", "setting": "[1]", "result": "moderate anti-herpetic activity"}]}
